Values of other authors, collected in US20130029884A1, “BIOCIDE FORMULATIONS” (ENVIROSYSTEMS, INC., priority 2011, published 2013).

Details: at 20% concentrations; cited from earlier work

tetrakis hydroxylmethyl phosphonium sulfate [THPS]
toxic category: 1
